Measurements: US20210060174A1 (CYTOSEEK, published 2021)

Target: T1, CshA-SpyTag
T1 construct: Fusion of CshA (Streptococcus gordonii) portion and SpyTag
T1 chain: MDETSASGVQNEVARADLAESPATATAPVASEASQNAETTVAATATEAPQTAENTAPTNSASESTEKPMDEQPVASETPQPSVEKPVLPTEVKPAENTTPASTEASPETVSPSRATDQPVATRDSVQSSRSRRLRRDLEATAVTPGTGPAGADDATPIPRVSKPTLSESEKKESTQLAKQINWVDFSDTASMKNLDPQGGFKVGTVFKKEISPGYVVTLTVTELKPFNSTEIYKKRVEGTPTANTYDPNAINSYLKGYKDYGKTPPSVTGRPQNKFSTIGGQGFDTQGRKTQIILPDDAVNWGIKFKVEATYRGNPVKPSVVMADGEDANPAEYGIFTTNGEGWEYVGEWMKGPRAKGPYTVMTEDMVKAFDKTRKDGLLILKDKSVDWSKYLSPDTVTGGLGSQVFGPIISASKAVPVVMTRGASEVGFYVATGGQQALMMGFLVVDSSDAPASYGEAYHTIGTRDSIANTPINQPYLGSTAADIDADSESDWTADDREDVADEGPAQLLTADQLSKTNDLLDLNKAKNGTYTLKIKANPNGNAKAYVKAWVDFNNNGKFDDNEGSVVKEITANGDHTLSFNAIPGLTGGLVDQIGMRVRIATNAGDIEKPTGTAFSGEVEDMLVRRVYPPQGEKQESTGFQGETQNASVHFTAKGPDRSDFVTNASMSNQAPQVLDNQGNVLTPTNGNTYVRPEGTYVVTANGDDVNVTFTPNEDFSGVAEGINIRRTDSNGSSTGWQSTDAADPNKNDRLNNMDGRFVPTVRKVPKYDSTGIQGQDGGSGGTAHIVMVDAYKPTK
Test: SDS-PAGE of solution coupling reaction (covalent isopeptide bond)

| Binder | binding result |
| --- | --- |
| scGFP-SpyCatcher (other) ASKGERLFRGKVPILVELKGDVNGHKFSVRGKGKGDATRGKLTLKFICTTGKLPVPWPTLVTTLTYGVQCFSRYPKHMKRHDFFKSAMPKGYVQERTISFKKDGKYKTRAEVKFEGRTLVNRIKLKGRDFKEKGNILGHKLRYNFNSHKVYITADKRKNGIKAKFKIRHNVKDGSVQLADHYQQNTPIGRGPVLLPRNHYLSTRSKLSKDPKEKRDHMVLLEFVTAAGIKHGRDERYKGGSGGTGGSGGTGGSGGTGGAMVDTLSGLSSEQGQSGDMTIEEDSATHIKFSKRDEDGKELAGATMELRDSSGKTISTWISDGQVKDFYLYPGKYTFVETAAPDGYEVATAITFTVNEQGQVTVNGKATKGDAHI | binds |
| [scGFP-SpyCatcher][S] (other, Non-covalent corona of glycolic acid ethoxylate 4-nonylphenyl ether surfactant, electrostatically complexed to cationic residues (mainly on scGFP). The letters do not carry it., Protein-polymer surfactant conjugate of scGFP-SpyCatcher; same polypeptide as m1 with a non-covalent surfactant corona; also called scGFP-SpyCatcher surfactant conjugate) ASKGERLFRGKVPILVELKGDVNGHKFSVRGKGKGDATRGKLTLKFICTTGKLPVPWPTLVTTLTYGVQCFSRYPKHMKRHDFFKSAMPKGYVQERTISFKKDGKYKTRAEVKFEGRTLVNRIKLKGRDFKEKGNILGHKLRYNFNSHKVYITADKRKNGIKAKFKIRHNVKDGSVQLADHYQQNTPIGRGPVLLPRNHYLSTRSKLSKDPKEKRDHMVLLEFVTAAGIKHGRDERYKGGSGGTGGSGGTGGSGGTGGAMVDTLSGLSSEQGQSGDMTIEEDSATHIKFSKRDEDGKELAGATMELRDSSGKTISTWISDGQVKDFYLYPGKYTFVETAAPDGYEVATAITFTVNEQGQVTVNGKATKGDAHI | binds |
